Literature values in patent US20100135908A1, “Delivery devices for modulating inflammation” (Searete LLC, a limited liability corporation of the state …, priority 2008, published 2010).

Chains of the proteins cited; added tags and fusions are not shown. Residues count along the entry.
UniProt P09619, 33-1106, species assumed: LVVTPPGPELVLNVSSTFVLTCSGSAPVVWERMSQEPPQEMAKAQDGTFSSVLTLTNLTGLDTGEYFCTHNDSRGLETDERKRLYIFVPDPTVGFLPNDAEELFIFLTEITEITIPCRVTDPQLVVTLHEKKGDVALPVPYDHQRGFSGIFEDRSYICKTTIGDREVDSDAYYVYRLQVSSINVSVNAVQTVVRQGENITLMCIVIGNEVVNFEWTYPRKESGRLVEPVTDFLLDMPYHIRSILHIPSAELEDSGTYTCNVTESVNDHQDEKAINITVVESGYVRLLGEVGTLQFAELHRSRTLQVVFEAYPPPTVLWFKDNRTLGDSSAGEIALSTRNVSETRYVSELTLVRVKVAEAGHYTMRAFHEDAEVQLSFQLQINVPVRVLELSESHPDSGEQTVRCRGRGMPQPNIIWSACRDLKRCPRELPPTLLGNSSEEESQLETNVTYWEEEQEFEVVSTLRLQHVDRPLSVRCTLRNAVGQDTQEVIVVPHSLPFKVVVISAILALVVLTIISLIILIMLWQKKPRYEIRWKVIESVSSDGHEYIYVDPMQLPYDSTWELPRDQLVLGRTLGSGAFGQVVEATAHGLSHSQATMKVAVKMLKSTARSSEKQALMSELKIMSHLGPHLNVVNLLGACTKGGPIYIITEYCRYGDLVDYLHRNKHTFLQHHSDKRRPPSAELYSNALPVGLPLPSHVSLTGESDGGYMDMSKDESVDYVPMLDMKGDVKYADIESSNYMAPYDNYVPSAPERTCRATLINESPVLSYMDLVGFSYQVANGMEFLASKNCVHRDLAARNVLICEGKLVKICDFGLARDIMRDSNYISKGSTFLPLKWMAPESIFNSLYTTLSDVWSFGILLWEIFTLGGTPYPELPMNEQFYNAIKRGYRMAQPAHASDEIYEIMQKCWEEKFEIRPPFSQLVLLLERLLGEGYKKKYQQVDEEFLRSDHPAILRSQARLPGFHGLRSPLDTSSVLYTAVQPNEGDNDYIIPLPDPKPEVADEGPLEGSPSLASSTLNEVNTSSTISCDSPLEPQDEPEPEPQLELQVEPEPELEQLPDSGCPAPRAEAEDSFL
UniProt P10721, 26-976: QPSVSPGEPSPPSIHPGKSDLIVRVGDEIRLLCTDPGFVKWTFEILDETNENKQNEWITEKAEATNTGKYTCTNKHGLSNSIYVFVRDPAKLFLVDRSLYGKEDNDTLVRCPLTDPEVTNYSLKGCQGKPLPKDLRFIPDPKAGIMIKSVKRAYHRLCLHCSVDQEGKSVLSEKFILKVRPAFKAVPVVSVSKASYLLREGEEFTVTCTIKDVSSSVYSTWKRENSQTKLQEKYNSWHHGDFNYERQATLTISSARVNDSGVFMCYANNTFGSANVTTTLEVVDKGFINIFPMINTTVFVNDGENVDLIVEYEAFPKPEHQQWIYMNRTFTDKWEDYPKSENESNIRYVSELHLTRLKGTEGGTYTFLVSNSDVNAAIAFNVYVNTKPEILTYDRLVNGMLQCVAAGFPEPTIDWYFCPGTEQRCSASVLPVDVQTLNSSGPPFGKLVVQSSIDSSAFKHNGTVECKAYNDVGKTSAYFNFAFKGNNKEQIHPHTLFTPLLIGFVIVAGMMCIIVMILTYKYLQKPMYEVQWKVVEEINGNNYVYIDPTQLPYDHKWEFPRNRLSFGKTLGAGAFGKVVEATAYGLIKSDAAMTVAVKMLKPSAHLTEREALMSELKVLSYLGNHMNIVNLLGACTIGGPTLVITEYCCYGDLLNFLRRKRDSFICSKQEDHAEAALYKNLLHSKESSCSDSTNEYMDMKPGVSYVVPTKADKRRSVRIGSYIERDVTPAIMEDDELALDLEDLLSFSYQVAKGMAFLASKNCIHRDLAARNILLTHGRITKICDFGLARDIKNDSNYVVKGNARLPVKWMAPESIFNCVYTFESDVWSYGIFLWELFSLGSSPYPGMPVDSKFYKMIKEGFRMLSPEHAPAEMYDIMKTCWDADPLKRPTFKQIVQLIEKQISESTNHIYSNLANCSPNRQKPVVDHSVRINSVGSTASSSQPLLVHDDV

Key:
PDGFRβ = PDGFRβ (Homo sapiens, UniProt P09619); conditions: at nanomolar concentrations
c-Kit = c-Kit (Homo sapiens, UniProt P10721); conditions: at nanomolar concentrations

Cc1nc(Nc2ncc(C(=O)Nc3c(C)cccc3Cl)s2)cc(N2CCN(CCO)CC2)n1.O [dasatinib, N-(2-chloro-6-methylphenyl)-2-[[6-[4-(2-hydroxyethyl)-1-piperazinyl]-2-methyl-4-pyrimidinyl]amino]-5-thiazolecarboxamide, monohydrate]
inhibition of PDGFRβ (PDGFRβ): inhibits
inhibition of c-Kit (c-Kit): inhibits
